Our source for the activation values is PubChem BioAssay AID485349 (National Center for Advancing Translational Sciences (NCATS), 2010).

The list shows a part of the results, in another mix than the full data. Activity calls are given as the source filed them. Calls follow the shape of the dose curve; as a rule, active = well fitted activation curve with a large enough effect; inconclusive = small, poorly fitted or top-dose-only effect; inactive = no such curve, though single readings can be large or run the other way.

This test is described as follows: qHTS Assay for Identifying a Potential Treatment of Ataxia-Telangiectasia. Also: % of control where 0% means no effect; nearly all actives have a fitted effect of over 45% in size. Particulars: […] A-T fibroblasts, KAP-1 phosphorylation AlphaLISA, neocarzinostatin DNA damage 30 min before lysis; at 57.5 µM (top of the series) unless noted. The source says:
NIH Chemical Genomics Center [NCGC] NIH Molecular Libraries Probe Centers Network [MLPCN] MLPCN Grant: MH089030-01 Assay Submitter (PI): Wei Zheng and Yosef Shiloh Ataxia-telangiectasia (A-T) is a devastating and progressive disease for which, there is no cure. Although A-T is a multisystem disease, it is stereotyped characterized by its neurological symptoms such as truncal ataxia, due to cerebellar cortical degeneration of the Purkinje and granule cells. Other symptoms of A-T are telangiectasias (dilated blood vessels), primary immunodeficiency, marked sensitivity to ionizing radiation (IR), chromosomal instability and predisposition to cancer. The underlying genetic cause of A-T is null mutations in the ATM (A-T mutated) gene. ATM is a nuclear serine/threonine kinase that functions as a master regulator of the cellular responses to double strand breaks (DSBs) in the DNA. Upon activation by DSBs, ATM phosphorylates a plethora of down stream targets, including KAP-1 on […]. KAP-1 phosphorylation occurs shortly in response to DSBs and mediates global chromatin relaxation, which facilitates DSB repair. To screen for small molecules that will compensate for the loss of ATM in cells derived from A-T patients, we monitored KAP-1 phosphorylation as a readout for ATM-like activity using an AlphaLISA assay.
qHTS Assay Protocol: Step,Parameter,Value,Description 1. Cell Plating, 3 ul, 500 cells/well in OPTI-MEM, 1% FBS, 1% Pen/Strep 2. Incubation, 16-24 hr, 37C, 5% CO2, 95% humidity 3. Library compounds, 23 nl, 76.7 - 0.61uM dilution series final concentration 4. Incubation, 60 min, 37C, 5% CO2, 95% humidity 5. Reagent, 1 ul, 1600 ng/ml NCS in PBS + 0.05% BSA + 0.005% Tween 20 6. Incubation, 30 min, 37C, 5% CO2, 95% humidity 7. Reagent, 1 ul, Premixed detection reagents and lysis buffer 8. Reagent, 1 ul, 0.6% Antifoam A 9. Incubation, 6 hr, 25C, 95% humidity 10. Readout, EnVision, EnVision plate reader. AlphaScreen 1536-well protocol Cells were plated using medium-binding white solid-bottom tissue culture treated Kalypsys plates. Multidrop dispense of 3 uL of […] (hTERT immortalized A-T patient fibroblast cells). Detection reagent and lysis buffer was 3.75nM Rab-a-pKAP1 antibody bound to 75 ng/ul AlphaScreen SA donor bead, 3.75 nM Biot-M-a-KAP1 antibody bound to AlphaLISA protein A acceptor bead, 0.5x protease inhibitor cocktail and 0.25x PerkinElmer lysis buffer. EnVision protocol for 1536-well AlphaScreen read (30ms excitation, 100ms read), about 10 min/plate.
For the molecule `O=C(OC1CN2CCC1CC2)c1cccc([N+](=O)[O-])c1` (configuration not stated), the activation is inactive: -31.4%.

In the case of `CCOC(=O)c1ccc(NC(=O)C(C)(CCl)SC)cc1` (configuration not stated), the activation was inactive: -12.2%. Under `Clc1n[nH]nc1-c1nn[nH][15n]1` stands inactive: -0.905%; under `CC(C)(C)C(=O)NC(Sc1ncccn1)C(Cl)(Cl)Cl` (configuration not stated), inactive: 10.7%. Under `CCC1=CC2Cc3nc4ccc(Cl)cc4c(N)c3C(C1)C2` (configuration not stated) stands inactive: 17.2%; under `O=P1(Nc2ccccn2)COc2ccccc2OC1`, inactive: 1.05%. To `CCOP(=O)(NC(=NC(C)c1ccccc1)NC(C)c1ccccc1)OCC` (configuration not stated) belongs inactive: 3.66%; to `CCOP(=O)(Nc1ccc(C)cn1)OCC`, inactive: 11.8%; to `CC(C)/C=N\N=C(\N)N[N+](=O)[O-]`, inactive: -1.33%. Turning to `O=[As](O)(c1ccccc1Br)c1ccccc1Br`, the activation is inactive: -1.2%. Under `COc1ccccc1CNC(=O)COC(=O)C(O)(c1ccccc1)c1ccccc1` stands inactive: -0.373%; under `CN(C)C1(CNC(=O)c2ccc(S(C)(=O)=O)cc2)CCCCC1`, inactive: -3.91%. To `O=C(/C=C/c1ccccc1)OC1CN2CCC1CC2` (configuration not stated) belongs inactive: -7.34%; to `Cc1nn(-c2ccccc2)c2c1P(=O)(N1CCOCC1)N(C)C(c1ccccc1)=N2` (configuration not stated), inactive: -1.71%. To `Cc1ccc(C(=O)OC2CN3CCC2CC3)cc1` (configuration not stated) belongs inactive: 2.94%. For the molecule `CC1CCC(C(C)C)C(OP(=O)(Nc2ccccn2)c2ccccc2)C1` (configuration not stated), the activation is inactive: -0.673%. To `Nc1cccc([As](=O)(O)c2ccccc2)c1` belongs inactive: 1.22%.

Turning to `Cc1ccc(OCC(=O)OC2CN3CCC2CC3)cc1` (configuration not stated), the activation was inactive: -0.0614%. In the case of `NS(=O)(=O)c1cccc(NC(=O)COC(=O)C(O)(c2ccccc2)c2ccccc2)c1`, the activation is inactive: 5.69%. To `O=P1(Nc2ccc(Br)cn2)COc2ccccc2OC1` belongs inactive: 10.4%; to `O=P1(Nc2ncccn2)COc2ccccc2OC1`, inactive: 2.81%.

Take `O=C(O)COc1ccc([As](=O)(O)O)cc1[N+](=O)[O-]`: the activation is inactive: -3.64%. To `Nc1ccccc1[As](=O)(O)c1ccccc1` belongs inactive: 6.13%; to `CCOP1(=S)c2c(C)nn(CCC#N)c2N=C(c2ccccc2F)N1C` (configuration not stated), inactive: -0.268%; to `O=P(Nc1nccs1)(Oc1ccccc1)Oc1ccccc1`, inactive: 4.21%. Regarding `O=P(Nc1nccs1)(c1ccccc1)c1nc2ccccc2s1` (configuration not stated), the activation is inactive: -1.18%. On to `CS(=O)(=O)c1cc([N+](=O)[O-])c2no[n+]([O-])c2c1`, for which the activation was inactive: -0.727%. To `N#CCCN(C(=O)COC(=O)C(O)(c1ccccc1)c1ccccc1)c1ccc(F)cc1` belongs inactive: -0.806%.

With `CCOP1(=S)c2c(C)nn(CCC#N)c2N=C(c2ccc(F)cc2)N1C` (configuration not stated), the activation is inactive: 4.63%. Under `CN(C(=O)Cc1ccccc1)[C@@H]1CC[C@]2(CCCO2)C[C@H]1N1CCCC1` stands inactive: -5.41%; under `O=[N+]([O-])c1ccc2c(c1)nnn2O`, inactive: 1.59%; under `NC(=O)Nc1ccc([As](=O)(O)O)cc1`, inactive: -9.68%.

`O=[As](O)(c1cccc(O)c1)c1cccc(O)c1`: the activation is inactive: -2.82%.

Turning to `O=C(OC1CN2CCC1CC2)c1ccc(Cl)cc1` (configuration not stated), the activation is inactive: 8.37%. Under `O=[As](O)(O)c1cccnc1` stands inactive: -11.5%; under `COc1cc(C(=O)NCC2(N3CCOCC3)CCCCC2)cc(Cl)c1OC(C)C`, inactive: 0.0065%; under `CS(=O)(=O)c1ccc(Cl)c(NC(=O)COC(=O)C(O)(c2ccccc2)c2ccccc2)c1`, inactive: -2.25%. For the molecule `COc1cc(C2NCCC3(OCCO3)C2(C)C)cc(OC)c1OC` (configuration not stated), the activation was inactive: 3.09%. With `CCOP(=O)(Nc1cccc2ccccc12)OCC`, the activation is inactive: 2.58%. Under `Cc1ccc(NCCc2c([N+](=O)[O-])cc([N+](=O)[O-])cc2[N+](=O)[O-])cc1` stands inactive: -0.566%. Consider `Nc1cccc2c([As](=O)(O)O)cccc12`, for which the activation is inactive: 0.725%. Regarding `CCCOP(=S)(Nc1nc(N)cc(=O)[nH]1)OCCC`, the activation is inactive: -72.7%.
